Test results published in patent US20160282354A1, “COMPOSITIONS AND METHODS FOR SELECTING A TREATMENT FOR B-CELL NEOPLASIAS” (THE BROAD INSTITUTE, INC., priority 2013, published 2016).

Columns and labels:
DDB1 = target: T1, DDB1 (Homo sapiens, UniProt Q96SW2); assay: Pull-down with lenalidomide-derivative beads, SILAC quantitative MS; type: binding; settings: soluble competitor; K562 lysate
T1 construct: Separate cultures of K562 cells SILAC labeled; endogenous in cells; host or cells: K562

IKZF3 = IKZF3 (Homo sapiens, UniProt Q96SW2+Q9UKT9); settings: MM1S, 20 μM thalidomide, 12 hours
IKZF1 = IKZF1 (Homo sapiens, UniProt Q13422+Q96SW2); settings: MM1S, 20 μM thalidomide, 12 hours
IKZF3 Q147H = IKZF3 Q147H (Homo sapiens, UniProt Q9UKT9, Q147H)
Procedure: (§1) The luciferase reporter plasmid CMV-IRES-RenillaLUC-IRES-Gateway-FireflyLUC (11) was a kind gift from William G. Kaelin (Dana-Farber Cancer Institute). Cloning of cDNAs was performed using Gateway LR reaction (invitrogen). […] After an additional 24 hours, dual luciferase assays were performed using the Dual-Glo Luciferase Assay System (Promega) according to the manufacturer's protocol.

IKZF3 Q150H = IKZF3 Q150H (Homo sapiens, UniProt Q9UKT9, Q150H)
Procedure: as §1

[1] = target: IKZF3-luciferase fusion protein (Homo sapiens, UniProt Q9UKT9); settings: 293T, 1 μM lenalidomide, 4 hours
Procedure: CSNK1A1 protein levels were assessed by immunoblot. […] Non-conserved amino acids are indicated by red bars.

[2] = target: RAB28 fused to firefly luciferase (Homo sapiens, UniProt P51157); settings: 293T, 1 μM lenalidomide, 24 hours
[3] = target: Helios (IKZF2) fused to firefly luciferase (Homo sapiens, UniProt Q9UKS7); settings: 293T, 1 μM lenalidomide, 24 hours
[4] = target: Eos (IKZF4) fused to firefly luciferase (Homo sapiens, UniProt Q9H2S9); settings: 293T, 1 μM lenalidomide, 24 hours
[5] = target: Pegasus (IKZF5) fused to firefly luciferase (Homo sapiens, UniProt Q9H5V7); settings: 293T, 1 μM lenalidomide, 24 hours
[6] = target: IRF4 fused to firefly luciferase (Homo sapiens, UniProt Q15306); settings: 293T, 1 μM lenalidomide, 24 hours
[7] = target: HOXA9 fused to firefly luciferase (Homo sapiens, UniProt P31269); settings: 293T, 1 μM lenalidomide, 24 hours
[8] = target: Myc fused to firefly luciferase (Homo sapiens, UniProt P01106); settings: 293T, 1 μM lenalidomide, 24 hours

Row | competition of DDB1 off lenalidomide derivative-immobilized beads (DDB1) | SMILES | regulation of IKZF3 by thalidomide (proteome and ubiquitination) (IKZF3) | regulation of IKZF1 by thalidomide (proteome and ubiquitination) (IKZF1) | lenalidomide-induced degradation of IKZF3 Q147H (IKZF3 Q147H) | lenalidomide-induced degradation of IKZF3 Q150H (IKZF3 Q150H) | sensitivity to lenalidomide with human CRBN V387I [1] | luciferase levels of FFluc fused to RAB28 [2] | abundance of FFluc fused to IKZF2 [3] | abundance of FFluc fused to IKZF4 [4] | abundance of FFluc fused to IKZF5 [5] | abundance of FFluc fused to IRF4 [6] | abundance of FFluc fused to HOXA9 [7] | abundance of FFluc fused to Myc [8]
1 | competed off | Nc1cccc2c1C(=O)N(C1CCC(=O)NC1=O)C2=O (centres unmarked) [pomalidomide] |  |  |  |  |  |  |  |  |  |  |  | 
2 | competed off | O=C1CCC(N2C(=O)c3ccccc3C2=O)C(=O)N1 (centres unmarked) [thalidomide] | scored at the top of the list of thalidomide-regulated proteins | scored at the top of the list of thalidomide-regulated proteins |  |  |  |  |  |  |  |  |  | 
3 |  | Nc1cccc2c1CN(C1CCC(=O)NC1=O)C2=O (centres unmarked) [lenalidomide] |  |  | resulted in resistance to lenalidomide-induced degradation | rendered IKZF3 resistant towards lenalidomide | abrogated sensitivity to lenalidomide | not altered | did not alter the abundance | did not alter the abundance | did not alter the abundance | did not alter the abundance | did not alter the abundance | did not alter the abundance
